Each structure is given as a SMILES string. This is a selection; strong and weak results do not stand in their true shares. Records with an inconclusive call do not appear. Activity calls are given as the source filed them. The call rests on the fitted dose curve; in most records, active means well fitted curve in either direction with a large enough effect (not every such curve was filed as active); inconclusive means small, poorly fitted or top-dose-only effect, or another doubt; inactive means flat fitted curve, though single readings scatter.

This note sets out measurements from PubChem BioAssay (NCATS).
On the % scale 0 is the no-effect control and ±100 the full control effect.

The assay can be described thus: AP1 Signaling Pathway (AID 357).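 Further: ME-180 reporter cells stimulated with EGF at its EC50 level.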 Particulars: ME-180 (cervical carcinoma) AP-1-bla reporter, EGF-induced, beta-lactamase ratio, 5 h; at 7.69 µM (top of the series) unless noted. The source says:
NCGC Assay Overview: Activator protein-1 (AP-1), a transcription factor, plays an important role in tumor genesis by regulating genes involved in cell proliferation, differentiation, apoptosis, and angiogenesis. AP-1 activity is induced by a complex network of signaling pathways that involves extracellular signals, such as growth factors. The AP-1 protein complex formed from c-Fos and c-Jun binding to the AP-1 response element results in transcriptional activation of genes containing such elements within their promoter. Low molecular weight molecules have been discovered and developed to modulate various components of these signaling pathways, for example, MAP kinase inhibitors. However, many points of pathway modulation remain untested due to the lack of chemical probes making this signaling locus of general interest. Using a beta-lactamase reporter-gene under control of the AP-1 response element, a cell-based assay [CellSensor(TM) AP-1-bla ME-180 developed by Invitrogen Corp.] was used to measure EGF-induced signaling. Library compounds were measured for their ability to modulate positively or negatively the action of EC50 EGF on reporter gene activity. Compounds were screened in a titration series in 1536-well format. Positive and negative modulators were identified based on the AC50 values derived from the screening data.
NCGC Assay Protocol Summary: 2500 cells/5uL in Opti-MEM medium containing 0.5% dialyzed FBS, 0.1 mM NEAA, 1 mM sodium pyruvate and 10 mM HEPES was dispensed into 1536-well plates and cells were cultured at 37 degrees Celsius overnight. […] After centrifugation at 1000 rpm for 2 seconds the plates were incubated at 37 degrees Celsius for 5 hours. 1 uL of CCF4-dye mixture was added to each well. After incubated at room temperature for 2.5 hours the plates were measured on an EnVision plate reader at Excitation 405nm, Emission1=460nm and Emission 2=530nm. The %Activity was determined from the ratio of 460nm/530nm.
Take `O=[N+]([O-])c1ccc(C[As](=O)(O)O)cc1`: the activity change, negative = inhibition was inactive: 0.621%.
With `Cc1ccc(OCC(=O)OC2CN3CCC2CC3)cc1` (configuration not stated), the activity change, negative = inhibition is inactive: -3.83% [at 17.2 µM].
Regarding `CN(C(=O)Cc1ccc(Cl)c(Cl)c1)[C@@H]1CC[C@@]2(CCCO2)C[C@H]1N1CCCC1`, the activity change, negative = inhibition is inactive: 9.11% [at 38 µM].
Turning to `CN(C(=O)Cc1ccc(Cl)c(Cl)c1)[C@@H]1CCCC[C@H]1N1CCCC1`, the activity change, negative = inhibition is inactive: 12% [at 38 µM] [middle of 4 runs].
As for `O=C(CC(=O)c1ccccc1)O[C@H]1CN2CCC1CC2`, the figure is inactive: -3.22%; as for `C(Cc1nn[nH]n1)c1nn[nH]n1`, inactive: 7.66%; as for `[N-]=[N+]=NCC(O)CN=[N+]=[N-]` (configuration not stated), inactive: 5.82%.
As for `NC(=O)Nc1cc([As](=O)(O)O)cc(I)c1O`, the figure is inactive: -5.16%.
On to `NCC[C@@H](N)CSP(=O)(O)O`, for which the activity change, negative = inhibition was inactive: 7.15%.
Take `O=[As](O)(O)c1ccc([As](=O)(O)O)cc1`: the activity change, negative = inhibition is inactive: 4.37%.
The result for `CN1CCC[C@H](OC(=O)C(c2ccccc2)c2ccccc2)C1` reads inactive: -3.51%; that for `CN(C(=O)Cc1ccccc1)[C@@H]1CC[C@@]2(CCCO2)C[C@H]1N1CCCC1`, inactive: 11.7% [at 38 µM]; that for `NC(=O)Nc1ccc([As](=O)(O)O)cc1`, inactive: 4.45% [at 17.2 µM].
The result for `CN(CCCl)Cc1cc(Cl)c(NC2=NCCN2)c(Cl)c1` reads inactive: 7.8% [at 38 µM]; that for `[N-]=[N+]=Nc1ccc([As](=O)(O)O)cc1`, inactive: 3.4%; that for `O=C(O)[C@@H](O)c1ccc([As](=O)(O)O)cc1`, inactive: -1.94%.
The result for `O=C(CO)Nc1ccc([As](=O)(O)O)cc1` reads inactive: -6.04%; that for `C[C@@H](O)COc1ccc([As](=O)(O)O)cc1N`, inactive: -1.83%.
In the case of `[N-]=[N+]=NCC(N)=O`, the activity change, negative = inhibition was inactive: -6.87%.
As for `NS(=O)(=O)Cc1ccc([As](=O)(O)O)cc1`, the figure is inactive: 1.04%; as for `O=[As]c1ccc(S(=O)(=O)NCCO)cc1` (configuration not stated), inactive: 3.58%; as for `Cc1cccc(OCC(=O)OC2CN3CCC2CC3)c1` (configuration not stated), inactive: -0.747% [at 17.2 µM].
